Consider 1 substance from patent US20090196869A1, “ANTITUMOR COMBINATIONS CONTAINING TAXANE DERIVATIVES” (SANOFI-AVENTIS, priority 2006, published 2009).

Data set [1] is described as follows: Toxicity (drug deaths, body weight loss, highest non-toxic dose) in tumor-bearing nude mice. In kind it is in vivo. Particulars: Herceptin alone, day 17, 21, 25, 29. The protocol: (§1) The animals subjected to the experiment, generally mice, are subcutaneously grafted bilaterally with 30 to 60 mg of a tumor fragment on day 0. The animals bearing tumors are mixed before being subjected to the various treatments and controls. In the case of treatment of advanced tumors, tumors are allowed to develop to the desired size, animals having insufficiently developed tumors being eliminated. The selected animals are distributed at random to undergo the treatments and controls. Animals not bearing tumors may also be subjected to the same treatments as the tumor-bearing animals in order to be able to dissociate the toxic effect from the specific effect on the tumor. Chemotherapy generally begins from 3 to 22 days after grafting, depending on the type of tumor, and the animals are observed every day. The different animal groups are weighed 3 or 4 times a week until the maximum weight loss is reached, and the groups are then weighed at least once a week until the end of the trial.
The study was scheduled as a 3-arm dose-response: • acetyl cyclopropyl docetaxel alone (52.1-12.4 mg/kg/iv inj, day 17, 21, 25) • Herceptin® alone (40-2.5 mg/kg/sc inj, day 17, 21, 25, 29) • Combination with a simultaneous injection of both agents. The following end points have been used: • Toxicity was declared at dosages inducing >20% body weight loss or >10% drug death, • The Highest NonToxic Dose (HNTD) was determined by the log cell kill=(T−C)/[3.32×(tumor doubling time in days)] (T meaning the time of the treated mice to reach 1 g and C the time (26.2 days) of the control mice to reach the same size).

Data set [2] has as its system Human breast carcinoma UISO-BCA-1. In words: Antitumor activity in Human Mammary UISO-BCA-1 xenografted in nude mice (3-arm dose-response). To be noted: Herceptin alone, day 17, 21, 25, 29. In kind it is in vivo. As to the method:
This efficacy may be quantified, for example, by the log10 cells killed, which is determined according to the following formula: […]
A product is considered to be active if log10 cells killed is greater than or equal to 0.7. A product is considered to be very active if log10 cells killed is greater than 2.8.
The combination, used at its own maximum tolerated dose, in which each of the constituents will be present at a dose generally not exceeding its maximum tolerated dose, will manifest therapeutic synergy when the log10 cells killed is greater than the value of the log10 cells killed of the best constituent when it is administered alone.
as §1, with “Animals not bearing tumors may also be subjected to the same treatments as the tumor-bearing animals in order to be able to dissociate the toxic effect from the specific effect on the tumor. Chemotherapy generally begins from 3 to 22 days after grafting, depending on the type of tumor, and the animals are observed every day.” left out
The tumors are measured 2 or 3 times a week until the tumor reaches approximately 2 g, or until the animal dies if this occurs before the tumor reaches 2 g. The animals are autopsied when sacrificed.
The tumor model used to evaluate each drug combination was selected, in general, on the basis of its responsiveness to each of the agents when used as monotherapy. Using i.v. intermittent schedules, full dose response trials were conducted for each single agent and each combination. In the present case, the selected tumor was a Human breast carcinoma UISO-BCA-1 derived from a malignant pleural effusion. The primary tumor was well-differentiated infiltrating ductal carcinoma of the breast. Radiotherapy post mastectomy was practiced. Three years after, chemotherapy to treat a left supraclavicular mass was done (10 courses with cytoxan, methotrexate, 5-Fu and Tamoxifen). […] This tumor model was established in nude mice from a 2.10^7 cell implant, and maintained by serial sc passage as tumor fragment.
In general terms: A xenograft is tissue or cells of one species grown in another, often human tumour cells in immunodeficient mice.

[3] abbreviates: sc 2.5 mg/kg/day (total 10.0 mg/kg).
Where [4] appears, read: sc 10.0 mg/kg/day (total 40.0 mg/kg).
Setting [5] is: sc 25.0 mg/kg/day (total 100.0 mg/kg).
Where [6] appears, read: sc 40.0 mg/kg/day (total 160.0 mg/kg).

For trastuzumab [Herceptin ®], the “% bwl at nadir” value in data set [1] (setting [3]) was “+11.1%”; in data set [1] (setting [4]), “+14.4%”; in data set [1] (setting [5]), “+13.8%”; in data set [1] (setting [6]), 0.5%. Moreover, the Drug deaths is recorded as 0/8 in data set [1] (setting [3]), 0/8 in data set [1] (setting [4]), 0/8 in data set [1] (setting [5]) and 0/7 in data set [1] (setting [6]). In addition, the “(T-C) days” value in data set [2] (setting [3]) came out at 1.4 days; in data set [2] (setting [4]), 0.2 days; in data set [2] (setting [5]), 0.6 days; in data set [2] (setting [6]), 0.6 days. Moreover, the CR in data set [2] (setting [3]) is given as 0/8; in data set [2] (setting [4]), 0/8; in data set [2] (setting [5]), 0/8; in data set [2] (setting [6]), 0/7. Also, the “TFS d121” value is 0/8 in data set [2] (setting [3]), 0/8 in data set [2] (setting [4]), 0/8 in data set [2] (setting [5]) and 0/7 in data set [2] (setting [6]). Besides, the log cell kill was found to be 0.1 in data set [2] (setting [3]), 0.0 in data set [2] (setting [4]), 0.0 in data set [2] (setting [5]) and 0.0 in data set [2] (setting [6]).
